Measurements published in the Kinase Knowledgebase extract (Sharma et al. 2016).

Amino acid sequences for entries named in this document (tags omitted). A change or cut given only in a name is not applied to a line headed by its entry.
UniProt P42338: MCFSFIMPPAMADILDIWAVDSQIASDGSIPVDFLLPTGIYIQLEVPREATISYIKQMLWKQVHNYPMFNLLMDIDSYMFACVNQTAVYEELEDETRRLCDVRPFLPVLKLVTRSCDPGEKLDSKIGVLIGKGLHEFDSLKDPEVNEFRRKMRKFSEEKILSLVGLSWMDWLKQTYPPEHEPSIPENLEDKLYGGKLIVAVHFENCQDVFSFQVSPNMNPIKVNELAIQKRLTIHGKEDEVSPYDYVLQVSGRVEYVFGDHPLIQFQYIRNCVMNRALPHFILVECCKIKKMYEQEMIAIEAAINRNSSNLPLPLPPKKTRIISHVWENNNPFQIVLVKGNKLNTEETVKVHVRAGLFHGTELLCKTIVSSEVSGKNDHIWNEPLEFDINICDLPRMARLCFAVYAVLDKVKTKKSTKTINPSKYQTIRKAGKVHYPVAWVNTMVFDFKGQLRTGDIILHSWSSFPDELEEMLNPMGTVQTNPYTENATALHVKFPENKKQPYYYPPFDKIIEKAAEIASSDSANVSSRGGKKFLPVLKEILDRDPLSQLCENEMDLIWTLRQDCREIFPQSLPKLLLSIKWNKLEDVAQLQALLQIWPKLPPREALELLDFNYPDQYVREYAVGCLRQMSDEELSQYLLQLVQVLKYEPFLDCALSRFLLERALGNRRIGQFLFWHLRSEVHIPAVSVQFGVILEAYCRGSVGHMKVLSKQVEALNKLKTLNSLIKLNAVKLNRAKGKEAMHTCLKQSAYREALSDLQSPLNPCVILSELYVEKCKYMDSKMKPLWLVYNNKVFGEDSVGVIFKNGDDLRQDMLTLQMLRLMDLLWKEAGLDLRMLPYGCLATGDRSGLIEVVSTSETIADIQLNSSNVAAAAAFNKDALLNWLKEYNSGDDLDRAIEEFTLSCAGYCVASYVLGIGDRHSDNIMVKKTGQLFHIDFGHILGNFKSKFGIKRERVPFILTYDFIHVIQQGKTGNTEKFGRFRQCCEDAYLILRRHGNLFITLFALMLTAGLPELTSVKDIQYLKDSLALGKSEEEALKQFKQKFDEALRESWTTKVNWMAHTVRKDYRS
UniProt P48736: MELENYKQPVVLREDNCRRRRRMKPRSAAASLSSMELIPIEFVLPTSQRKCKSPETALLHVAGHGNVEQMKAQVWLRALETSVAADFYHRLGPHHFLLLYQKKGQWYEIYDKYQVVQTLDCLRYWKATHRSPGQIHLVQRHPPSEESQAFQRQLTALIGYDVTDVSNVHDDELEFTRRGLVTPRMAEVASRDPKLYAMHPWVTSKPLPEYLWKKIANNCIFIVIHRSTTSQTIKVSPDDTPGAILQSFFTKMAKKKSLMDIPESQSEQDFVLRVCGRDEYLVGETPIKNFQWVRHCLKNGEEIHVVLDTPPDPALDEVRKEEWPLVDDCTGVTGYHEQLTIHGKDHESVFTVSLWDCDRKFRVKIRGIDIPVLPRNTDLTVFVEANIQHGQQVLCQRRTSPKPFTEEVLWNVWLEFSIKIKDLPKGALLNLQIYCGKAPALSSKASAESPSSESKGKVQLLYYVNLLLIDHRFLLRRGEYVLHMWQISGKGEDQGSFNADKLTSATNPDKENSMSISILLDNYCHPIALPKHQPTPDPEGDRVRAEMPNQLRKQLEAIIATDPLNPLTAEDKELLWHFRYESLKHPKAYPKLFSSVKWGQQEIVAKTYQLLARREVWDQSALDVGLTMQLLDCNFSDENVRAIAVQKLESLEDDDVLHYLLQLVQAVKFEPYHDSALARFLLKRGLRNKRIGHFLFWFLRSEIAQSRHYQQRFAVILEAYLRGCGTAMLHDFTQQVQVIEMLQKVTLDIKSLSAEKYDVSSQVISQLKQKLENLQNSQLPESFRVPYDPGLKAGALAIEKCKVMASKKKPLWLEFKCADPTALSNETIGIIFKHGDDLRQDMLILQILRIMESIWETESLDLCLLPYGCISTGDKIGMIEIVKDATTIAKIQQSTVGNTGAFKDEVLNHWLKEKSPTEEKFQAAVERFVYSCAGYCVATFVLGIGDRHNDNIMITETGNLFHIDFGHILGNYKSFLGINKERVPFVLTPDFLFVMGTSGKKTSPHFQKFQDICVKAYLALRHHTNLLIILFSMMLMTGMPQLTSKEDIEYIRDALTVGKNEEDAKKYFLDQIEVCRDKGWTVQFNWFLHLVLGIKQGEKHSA
UniProt O00329: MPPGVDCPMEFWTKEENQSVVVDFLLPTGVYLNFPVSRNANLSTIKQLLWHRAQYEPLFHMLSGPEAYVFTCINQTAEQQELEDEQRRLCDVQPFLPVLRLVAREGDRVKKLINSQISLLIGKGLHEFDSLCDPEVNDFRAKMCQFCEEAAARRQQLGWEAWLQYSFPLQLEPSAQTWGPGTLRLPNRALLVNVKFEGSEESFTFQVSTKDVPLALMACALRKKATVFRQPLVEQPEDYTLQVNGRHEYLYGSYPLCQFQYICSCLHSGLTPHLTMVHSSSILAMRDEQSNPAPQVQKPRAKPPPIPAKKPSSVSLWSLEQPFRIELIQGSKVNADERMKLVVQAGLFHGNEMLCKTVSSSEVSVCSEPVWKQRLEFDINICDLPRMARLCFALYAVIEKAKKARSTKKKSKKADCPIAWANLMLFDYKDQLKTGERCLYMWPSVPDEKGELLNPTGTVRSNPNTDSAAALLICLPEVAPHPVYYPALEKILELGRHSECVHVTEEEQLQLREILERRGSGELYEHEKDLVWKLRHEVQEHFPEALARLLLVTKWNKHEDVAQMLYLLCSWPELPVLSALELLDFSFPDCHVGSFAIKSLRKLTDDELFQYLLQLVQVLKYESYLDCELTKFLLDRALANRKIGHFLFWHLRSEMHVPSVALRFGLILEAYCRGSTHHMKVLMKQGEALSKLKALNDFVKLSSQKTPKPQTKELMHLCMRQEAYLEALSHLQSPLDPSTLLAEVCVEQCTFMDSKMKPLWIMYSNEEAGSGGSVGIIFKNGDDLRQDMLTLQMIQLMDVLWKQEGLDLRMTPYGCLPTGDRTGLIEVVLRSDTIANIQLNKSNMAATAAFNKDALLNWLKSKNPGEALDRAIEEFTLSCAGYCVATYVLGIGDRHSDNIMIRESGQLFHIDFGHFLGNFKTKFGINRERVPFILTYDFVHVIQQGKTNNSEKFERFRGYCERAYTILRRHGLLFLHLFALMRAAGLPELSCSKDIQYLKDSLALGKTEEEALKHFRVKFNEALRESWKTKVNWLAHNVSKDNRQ

Experiments:
[1] = target: PIK3CB (Human) (UniProt P42338); assay: Enzyme Assay
[2] = target: PIK3CG (human) (UniProt P48736); assay: Enzyme Assay
[3] = target: PIK3CD (Human) (UniProt O00329); assay: Cell-Based Assay; settings: raji
[4] = target: PIK3CD (Human) (UniProt O00329); assay: Enzyme Assay

With `C[C@H](NC(=O)c1c(N)nn2cccnc12)c1cc2cccc(C#Cc3cnn(C)c3C(F)(F)F)c2c(=O)n1-c1ccccc1` the IC50 [1] was 5000 to 10000 nM.

Compound `C[C@H](NC(=O)c1c(N)nn2cccnc12)c1cc2cccc(C#Cc3ccc(=O)[nH]c3)c2c(=O)n1-c1ccccc1` has an IC50 [2] of 1 to 100 nM.

`C[C@H](NC(=O)c1c(N)nn2cccnc12)c1cc2cccc(C#Cc3cn(C)cn3)c2c(=O)n1-c1ccccc1` gave an IC50 [2] of 1 to 100 nM.

`C[C@H](NC(=O)c1c(N)nn2cccnc12)c1cc2cccc(C#Cc3cnn(C)c3)c2c(=O)n1-c1ccccc1` was tested, and the IC50 [3] was 100 to 500 nM and the IC50 [4] was 5000 to 10000 nM.
